pIC50: −log10 of the molar value.
Target: T1, glutaminase (GAC) (Homo sapiens, UniProt O94925)
T1 sequence (O94925 55-598 isoform O94925-3 limits assumed): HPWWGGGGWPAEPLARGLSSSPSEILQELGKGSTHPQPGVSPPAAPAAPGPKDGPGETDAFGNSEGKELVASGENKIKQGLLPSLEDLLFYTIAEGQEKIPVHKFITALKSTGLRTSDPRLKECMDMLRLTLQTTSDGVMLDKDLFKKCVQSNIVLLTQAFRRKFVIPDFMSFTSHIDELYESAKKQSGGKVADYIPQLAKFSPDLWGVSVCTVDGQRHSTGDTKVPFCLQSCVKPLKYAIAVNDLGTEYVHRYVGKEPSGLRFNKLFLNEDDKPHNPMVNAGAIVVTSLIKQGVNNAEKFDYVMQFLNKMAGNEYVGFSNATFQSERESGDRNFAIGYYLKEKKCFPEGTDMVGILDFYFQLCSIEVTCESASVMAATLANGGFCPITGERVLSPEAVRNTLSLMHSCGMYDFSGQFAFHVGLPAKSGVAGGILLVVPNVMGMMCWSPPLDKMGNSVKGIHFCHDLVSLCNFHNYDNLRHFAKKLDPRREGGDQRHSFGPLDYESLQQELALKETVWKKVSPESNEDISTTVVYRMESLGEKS
Test: glutaminase coupled endpoint assay (Example A)
Format: biochemical
Conditions: inhibition of glutaminase; IC50 tested in an assay of Example A or Example B
Procedure: In this example, the enzymatic activity of glutaminase is measured through a coupled endpoint assay. […] The glutamate produced is converted to 2-OG by a kinetic excess of glutamate dehydrogenase. […] However, a kinetic excess of the third coupling enzyme, diaphorase, recycles NAD from NADH to keep the NAD concentration constant during the timecourse of the assay. Diaphorase, also supplied in kinetic excess, oxidizes NADH produced by GDH back to NAD with the concomitant reduction of rezasurin to the highly fluorescent resorufin. […] A reduction in the signal indicates inhibition of some component of the coupled enzyme system. Prospective hits are counterscreened against GDH/diaphorase alone to remove hits to the coupling enzyme system in a second assay.
2. […] Add 1 μl a compound in 100% DMSO 2. Add 40 μl of Enzyme Mix and incubate for 60 minute at room temperature 3. Add 10 μl of Substrate Mix to start reaction 4.

Row | pIC50 | SMILES
1 | > 7.00 | O=C(Cc1ccccc1Cl)Nc1nnc(CCCCc2nnc(NC(=O)Cc3ccccc3Cl)s2)s1 [Compound 86, N,N′-(5,5′-(butane-1,4-diyl)bis(1,3,4-thiadiazole-5,2-diyl))bis(2-(2-chlorophenyl)acetamide)]
2 | > 7.00 | Cc1cccc(CC(=O)Nc2nnc(CCCCc3nnc(NC(=O)Cc4cccc(C)c4)s3)s2)c1 [Compound 120, N,N′-(5,5′-(butane-1,4-diyl)bis(1,3,4-thiadiazole-5,2-diyl))bis(2-m-tolylacetamide)]
